In experiment [1] the target is ANF-RGC R^802C mutant (rat) (UniProt P18910).
The target of experiment [2] is ANF-RGC ΔH1 mutant (rat) (UniProt P18910).
Experiment [3] addresses ANF-RGC ΔH2 mutant (rat) (UniProt P18910).
In experiment [4] the target is ANF-RGC ΔH3 mutant (rat) (UniProt P18910).
For experiment [5], the target named is ANF-RGC ΔH4 mutant (rat) (UniProt P18910).
Experiment [6] has as its target ANF-RGC ΔH5 mutant (rat) (UniProt P18910).
In experiment [7] the target is wild type Atrial Natriuretic Factor Receptor Guanylate Cyclase (rat) (UniProt P18910).
Experiment [8] shares this target. The source holds these as a separate data set.
The target in experiment [9] is ANF-RGC ΔH1 mutant (rat) (UniProt P18910). This is another data set of the same source.
Experiment [10] concerns the target ANF-RGC ΔH2 mutant (rat) (UniProt P18910). The source holds these as a separate data set.
For experiment [11], the target named is ANF-RGC ΔH3 mutant (rat) (UniProt P18910). This is another data set of the same source.
Experiment [12] addresses ANF-RGC R^802C mutant (rat) (UniProt P18910). This is another data set of the same source.
Experiment [13] concerns the target ANF-RGC ΔH4 mutant (rat) (UniProt P18910). This is another data set of the same source.
The target of experiment [14] is ANF-RGC ΔH5 mutant (rat) (UniProt P18910). The source holds these as a separate data set.

Turning to “myristoylated neurocalcin δ (from UniProt P61602 1-193) (natural protein)”, the EC50 of myr-NCδ in modulating guanylate cyclase activity of COS cell membranes, 1 μM Ca^2+ in experiment [1] amounted to 0.7 µM; in experiment [2], 0.7 µM; in [3] it was 0.9 µM; in experiment [4], 0.8 µM; in experiment [5], 0.5 µM; in experiment [6], 0.7 µM. The EC50 of myr-NCδ in modulating guanylate cyclase activity of COS cell membranes, 1 μM Ca^2+ in experiment [7] is 0.5 µM. The substance further yielded a guanylate cyclase activity of COS cell membranes at increasing concentrations of myr-NCδ, 1 μM Ca^2+; highest value (basal 56; 5-fold) (pmol cGMP min^-1 (mg prot)^-1) in [8] of 278. In experiment [9], this substance yielded a guanylate cyclase activity of COS cell membranes at increasing concentrations of myr-NCδ, 1 μM Ca^2+; highest value (basal 20; 5-fold) (pmol cGMP min^-1 (mg prot)^-1) of 105. In addition, in [10], the guanylate cyclase activity of COS cell membranes at increasing concentrations of myr-NCδ, 1 μM Ca^2+; highest value (basal 19; ∼4-fold) (pmol cGMP min^-1 (mg prot)^-1) turned out to be 78. The guanylate cyclase activity of COS cell membranes at increasing concentrations of myr-NCδ, 1 μM Ca^2+; highest value (basal 22; ∼5-fold) (pmol cGMP min^-1 (mg prot)^-1) in [11] turned out to be 109. In experiment [12], this substance displayed a guanylate cyclase activity of COS cell membranes at increasing concentrations of myr-NCδ, 1 μM Ca^2+; highest value (basal 24; ∼5-fold) (pmol cGMP min^-1 (mg prot)^-1) of 124. The same substance showed a guanylate cyclase activity of COS cell membranes at increasing concentrations of myr-NCδ, 1 μM Ca^2+; highest value (basal 105; ∼3.5-fold) (pmol cGMP min^-1 (mg prot)^-1) in [13] of 346. This substance gave a guanylate cyclase activity of COS cell membranes at increasing concentrations of myr-NCδ, 1 μM Ca^2+; highest value (basal 9; ∼4.5-fold) (pmol cGMP min^-1 (mg prot)^-1) in experiment [14] of 40.
